Data reported in PubChem BioAssay AID588780 (Sanford-Burnham Center for Chemical Genomics, 2011).
The source made the active and inactive calls.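 How the source made its calls: active means compounds whose fitted half-maximal concentration in the cell-protection dose series is at or below a set limit; inactive means the rest.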

System: H9c2 cardiomyocytes, 2-deoxyglucose stress, ATP luminescence, 2 h
Assay: protection of cardiomyocytes from 2-deoxyglucose injury, dose response, cell-based, 2-deoxyglucose stress, uHTS hits (AID 588780)

Row | SMILES | IC50
1 | NC(=O)c1ccsc1NC(=O)c1ccc([N+](=O)[O-])o1 | inactive: > 79 µM
2 | CCC(ONc1ccccc1C(F)(F)F)(C(=O)NN(C)C)c1ccccc1 (configuration not stated) | inactive: 52.5 µM
